Literature values in patent US6713077B1, “Control of shoot/foliar feeding pests with pesticide seed treatments” (Monsanto Technology, LLC, priority 1999, dated 2004).

Key:
[1] = in words; cited from earlier work
[2] = 20° C.; cited from earlier work

For “5-1-benzyl-3-furylmethyl-d-cis(1R,3S,E)2,2-dimethyl-3-(2-oxo,-2,2,4,5 tetrahydro thiophenylidenemethyl)cyclopropane carboxylate [Kadethrin]”, the Water solubility [1] is given as “practically insol” and the Vapor pressure [2] is given as less than 0.1 mPa.
